The nature of the data set: Solubility in water. Format: physicochemical. The protocol: In the presence of phospholipids the cholesterol resides within the phospholipid bilayer which can form a stable suspension of vesicles called liposomes. To avoid the requirement to add phospholipids a soluble derivative was tried. Polyoxyethanyl-cholesterol sebacate is soluble in water at 60 mg/ml however even at a 2000 fold excess (w/w) over QS21 no reduction in the lytic activity of QS21 was detected.

The substance Polyoxyethanyl-cholesterol sebacate yielded a soluble in water of 60 mg/mL.

For the origin of these results see patent publication US6846489B1, “Vaccines containing a saponin and a sterol” (priority 1995, dated 2005).
